Protein sequences, listed by entry. Tags and fused reporters are not part of them.
UniProt O60502, whole entry: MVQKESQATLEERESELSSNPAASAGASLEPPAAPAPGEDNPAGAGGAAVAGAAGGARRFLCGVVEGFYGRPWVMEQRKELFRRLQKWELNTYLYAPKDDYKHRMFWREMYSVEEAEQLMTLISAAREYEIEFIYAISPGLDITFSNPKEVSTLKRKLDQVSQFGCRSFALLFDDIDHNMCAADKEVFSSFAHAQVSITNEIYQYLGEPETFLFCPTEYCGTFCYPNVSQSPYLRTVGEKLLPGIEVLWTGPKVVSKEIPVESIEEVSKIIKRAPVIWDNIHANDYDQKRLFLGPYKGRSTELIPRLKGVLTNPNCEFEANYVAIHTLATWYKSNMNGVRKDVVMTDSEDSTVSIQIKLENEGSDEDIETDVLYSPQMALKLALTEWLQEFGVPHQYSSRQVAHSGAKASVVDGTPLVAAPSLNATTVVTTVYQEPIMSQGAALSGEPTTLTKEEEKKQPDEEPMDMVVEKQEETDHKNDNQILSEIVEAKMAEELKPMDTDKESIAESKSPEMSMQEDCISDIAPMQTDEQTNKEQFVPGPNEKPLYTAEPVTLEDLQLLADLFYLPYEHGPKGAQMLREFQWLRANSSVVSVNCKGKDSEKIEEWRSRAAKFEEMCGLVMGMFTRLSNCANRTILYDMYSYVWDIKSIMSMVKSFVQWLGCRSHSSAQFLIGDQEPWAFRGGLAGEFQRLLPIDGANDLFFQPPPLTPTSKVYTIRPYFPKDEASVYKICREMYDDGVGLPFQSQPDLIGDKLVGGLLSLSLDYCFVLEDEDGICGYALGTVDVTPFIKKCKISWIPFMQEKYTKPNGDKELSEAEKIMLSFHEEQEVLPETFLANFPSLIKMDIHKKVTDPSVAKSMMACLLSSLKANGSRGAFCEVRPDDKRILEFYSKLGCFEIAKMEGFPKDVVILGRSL

In patent US20210277003A1, “OGA INHIBITOR COMPOUNDS” (Janssen Pharmaceutica NV, priority 2018, published 2021):

Columns and labels:
[1] = molecular target: recombinant human Meningioma Expressed Antigen 5 (MGEA5), also referred to as O-GlcNAcase (OGA) (Homo sapiens, UniProt O60502); experiment: OGA biochemical assay: inhibition of hydrolysis of fluorescein mono-ß-D-N-Acetyl-Glucosamine (FM-GlcNAc), fluorescence readout; details: FM-GlcNAc substrate
Description: The assay is based on the inhibition of the hydrolysis of fluorescein mono-ß-D-N-Acetyl-Glucosamine (FM-GlcNAc) (Mariappa et al. 2015, Biochem J 470:255) by the recombinant human Meningioma Expressed Antigen 5 (MGEA5), also referred to as O-GlcNAcase (OGA). The hydrolysis FM-GlcNAc (Marker Gene technologies, cat #M1485) results in the formation of ß-D-N-glucosamineacetate and fluorescein. The fluorescence of the latter can be measured at excitation wavelength 485 nm and emission wavelength 538 nm. An increase in enzyme activity results in an increase in fluorescence signal. Full length OGA enzyme was purchased at OnGene (cat #TP322411). The enzyme was stored in 25 mM Tris.HCl, pH 7.3, 100 mM glycine, 10% glycerol at −20° C. Thiamet G and GlcNAcStatin were tested as reference compounds (Yuzwa et al. 2008 Nature Chemical Biology 4:483; Yuzwa et al. 2012 Nature Chemical Biology 8:393). The assay was performed in 200 mM Citrate/phosphate buffer supplemented with 0.005% Tween-20. 35.6 g Na2HPO4 2 H2O (Sigma, #C0759) were dissolved in 1 L water to obtain a 200 mM solution. 19.2 g citric acid (Merck, #1.06580) was dissolved in 1 L water to obtain a 100 mM solution. pH of the sodium phosphate solution was adjusted with the citric acid solution to 7.2. The buffer to stop the reaction consists of a 500 mM Carbonate buffer, pH 11.0. 734 mg FM-GlcNAc were dissolved in 5.48 mL DMSO to obtain a 250 mM solution and was stored at −20° C. OGA was used at a 2 nM concentration and FM-GlcNAc at a 100 uM final concentration. Dilutions were prepared in assay buffer. 50 nl of a compound dissolved in DMSO was dispensed on Black Proxiplate™ 384 Plus Assay plates (Perkin Elmer, #6008269) and 3 μl fl-OGA enzyme mix added subsequently. Plates were pre-incubated for 60 min at room temperature and then 2 μl FM-GlcNAc substrate mix added. […] Plates were briefly centrifuged for 1 min at 1000 rpm and incubate at room temperature for 6 h. To stop the reaction 5 μl STOP buffer were added and plates centrifuge again 1 min at 1000 rpm. Fluorescence was quantified in the Thermo Scientific Fluoroskan Ascent or the PerkinElmer EnVision with excitation wavelength 485 nm and emission wavelength 538 nm. For analysis a best-fit curve is fitted by a minimum sum of squares method. From this an IC50 value and Hill coefficient was obtained. High control (no inhibitor) and low control (saturating concentrations of standard inhibitor) were used to define the minimum and maximum values.

[2] = test system: OGA in HEK293 cells inducible for P301L mutant human Tau (isoform 2N4R); experiment: OGA cellular assay: immunocytochemical detection of O-GlcNAcylated proteins (CTD110.6 antibody); details: 6 hours incubation; for Cellular Emax (%): maximum = Thiamet G 200 uM
Experimental: HEK293 cells inducible for P301L mutant human Tau (isoform 2N4R) were established at Janssen. Thiamet-G was used for both plate validation (high control) and as reference compound (reference EC50 assay validation). OGA inhibition is evaluated through the immunocytochemical (ICC) detection of O-GlcNAcylated proteins by the use of a monoclonal antibody (CTD110.6; Cell Signaling, #9875) detecting 0-GlcNAcylated residues as previously described (Dorfmueller et al. 2010 Chemistry & biology, 17:1250). Inhibition of OGA will result in an increase of O-GlcNAcylated protein levels resulting in an increased signal in the experiment. Cell nuclei are stained with Hoechst to give a cell culture quality control and a rough estimate of immediate compounds toxicity, if any. ICC pictures are imaged with a Perkin Elmer Opera Phenix plate microscope and quantified with the provided software Perkin Elmer Harmony 4.1.
Cells were propagated in DMEM high Glucose (Sigma, #D5796) following standard procedures. 2 days before the cell assay cells are split, counted and seeded in Poly-D-Lysine (PDL) coated 96-wells (Greiner, #655946) plate at a cell density of 12,000 cells per cm^2 (4,000 cells per well) in 100p of Assay Medium (Low Glucose medium is used to reduce basal levels of GlcNAcylation) (Park et al. 2014 The Journal of biological chemistry 289:13519). At the day of compound test medium from assay plates was removed and replenished with 90 µl of fresh Assay Medium. 10p of compounds at a 10 fold final concentration were added to the wells. Plates were centrifuged shortly before incubation in the cell incubator for 6 hours. DMSO concentration was set to 0.2%. Medium is discarded by applying vacuum. For staining of cells medium was removed and cells washed once with 100 μl D-PBS (Sigma, #D8537). From next step onwards unless other stated assay volume was always 50p and incubation was performed without agitation and at room temperature. Cells were fixed in 50 μl of a 4% paraformaldehyde (PFA, Alpha aesar, #043368) PBS solution for 15 minutes at room temperature. […] Before analysis samples were washed 2 times manually for 5 minutes in ICC base buffer.
Imaging is performed using Perkin Elmer Phenix Opera using a water 20× objective and recording 9 fields per well. Intensity readout at 488 nm is used as a measure of O-GlcNAcylation level of total proteins in wells. To assess potential toxicity of compounds nuclei were counted using the Hoechst staining. IC50-values are calculated using parametric non-linear regression model fitting. As a maximum inhibition Thiamet G at a 200 uM concentration is present on each plate. In addition, a concentration response of Thiamet G is calculated on each plate.

| Enzymatic Emax (%) [1] [%] | Enzymatic hOGA; pIC50 [1] | Enzymatic Emax (%) ([1]; tested form: HCl) | Enzymatic hOGA; pIC50 ([1]; tested form: HCl) | Structure (SMILES) | Cellular hOGA; pEC50 [2] | Cellular Emax (%) [2] [%] | Cellular Emax (%) ([2]; tested form: HCl) | Cellular hOGA; pEC50 ([2]; tested form: HCl) |
| --- | --- | --- | --- | --- | --- | --- | --- | --- |
| – | 7.4 | – | – | FC1(F)CC1CCn1ccc2c(Nc3c(Cl)cccc3Cl)nccc21 (single isomer, unassigned) [109b] | 6.21 | 62.63 | – | – |
| 97.73 | 6.49 | – | – | CCCC(C)n1ccc2c(Nc3c(Cl)cccc3Cl)nccc21 (single isomer, unassigned) [105b] | – | – | – | – |
| 103.365 | 7.67 | – | – | FC1(F)CC1CCn1ccc2c(Nc3c(Cl)cccc3Cl)nccc21 (single isomer, unassigned) [109a] | 6.35 | 70.01 | – | – |
| 102.725 | 7.51 | – | – | CCCC(C)n1ccc2c(Nc3c(Cl)cccc3Cl)nccc21 (single isomer, unassigned) [105a] | 6.07 | 49.32 | – | – |

Second part, the compound before the results:

| Structure (SMILES) | Enzymatic Emax (%) [1] [%] | Enzymatic hOGA; pIC50 [1] | Enzymatic Emax (%) ([1]; tested form: HCl) | Enzymatic hOGA; pIC50 ([1]; tested form: HCl) | Cellular hOGA; pEC50 [2] | Cellular Emax (%) [2] [%] | Cellular Emax (%) ([2]; tested form: HCl) | Cellular hOGA; pEC50 ([2]; tested form: HCl) |
| --- | --- | --- | --- | --- | --- | --- | --- | --- |
| Cc1ccnc(C)c1Nc1nccc2c1ccn2CC(C)(F)F | 101.115 | 8.5 | – | – | 7.52 | 97.3957 | – | – |
| CCCCn1c(C)cc2c(Nc3c(C)ccnc3C)nccc21 | 102.49 | 7.2 | – | – | 6.41 | 72.4444 | – | – |
| CCCCn1ccc2c(Nc3ccc(C)c4c3cnn4C)nccc21 | – | – | 101.28 | 7.13 | – | – | 63.19 | 6.29 |
| FC(F)(Cn1ccc2c(Nc3c(Cl)cccc3Cl)nccc21)C1CC1 | 102 | 8.8 | – | – | 8.47 | 91 | – | – |
| Cc1cc(-c2cnn(C)c2)cc(C)c1Nc1nccc2c1ccn2CC1CC(F)(F)C1 | 99.265 | 7.99 | – | – | 7.56 | 95.2079 | – | – |
| CCCCn1ccc2c(Nc3c(Cl)cccc3Cl)ncc(C)c21 | – | – | 104 | 8.25 | – | – | 81 | 7.15 |
| Fc1cc(Cl)c(Nc2nccc3c2ccn3CC2CCO2)c(Cl)c1 (stereo not shown) | 103 | 8.71 | – | – | 7.67 | 87 | – | – |
| CC(C)=C(F)Cn1ccc2c(Nc3c(C)ccnc3C)nccc21 | – | – | 99.545 | 7.13 | – | – | 73.6534 | 6.66 |
| Cc1ccnc(C(C)C)c1Nc1nccc2c1ccn2CCC1COC1 | 102 | 7.75 | – | – | 7.04 | 81 | – | – |
